Source: PubChem BioAssay AID1199 (EPA DSSTox, 2008)
Active and inactive are the calls of the source.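 The calls were made as follows: active = a tumour-causing dose and a tumour site recorded for mice in at least one sex group; inconclusive = only government mouse studies exist and were judged inadequate; inactive = mouse studies exist but none gave tumours.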

System: mouse carcinogenicity bioassay, TD50 from CPDB
Assay: DSSTox (CPDBAS) Carcinogenic Potency Database Summary Mouse Bioassay Results
Conditions: for outcome: TD50_Mouse_Note: no positive results, TargetSites_Mouse_Female: no positive results
Text: The Carcinogenic Potency Database (CPDB) is a unique and widely used international resource of the results of over 6500 chronic, long-term animal cancer tests on over 1500 chemical substances. The CPDB provides easy access to the bioassay literature, with qualitative and quantitative analyses of both positive and negative experiments that have been published over the past 50 years in the general literature and by the National Cancer Institute/National Toxicology Program. The CPDB standardizes the diverse literature of cancer bioassays that vary widely in protocol, histopathological examination and nomenclature, and in the published author's choices of what information to provide in their papers. Results are reported in the CPDB for tests in rats, mice, hamsters, dogs, and nonhuman primates, and are based on the most positive result among all experiments for each sex-species. The DSSTox CPDBAS (all species) file incorporates data from the CPDB Summary Tables for the full list of over 1500 chemical substances tested in at least one species. Summary bioassay results for Mouse (TD50, tumor sites, male, female, both sexes) are provided in the CPDB Summary Tables and the DSSTox CPDBAS file for over 1000 chemical substances.
TD50 is a standardized quantitative measure of carcinogenic potency (analogous to an LD50) and is reported in the CPDB Summary Table for each species. Activity Score for actives is computed by mapping of LOG10 (1/TD50_Mouse_mmol) activity values spanning range [MIN, MAX] onto Integer 1-100 Activity Score range, where 100 is highest potency and 1 is lowest: Activity Score = 100 * INTEGER[(log10(1/Activity) - MIN)/(MAX […] MIN)]. If activity is reported but no TD50_Mouse_mmol value is computed, such as for a mixture, the Activity Score is assigned the activity value "50". […] Target sites are reported for each sex-species group with a positive result in the CPDB on the basis of a positive author's opinion for the particular site, using all results from both the general literature and NCI/NTP bioassays. If a chemical has two or more target sites listed, the results may be from different experiments, and a single site may be a target organ in more than one experiment, as well. Blank entry in TargetSites field indicates no results reported.

CCN(N=O)C(=N)N[N+](=O)[O-]
Potency (TargetSites_Mouse_BothSexes: esophagus, small intestine): 0.0176 mmol/kg/day

COP(=O)(OC)N1CCOCC1
outcome: inactive; no positive results

CN(N=O)C(=N)N[N+](=O)[O-]
Potency (TargetSites_Mouse_Female: small intestine): 0.0138 mmol/kg/day

C1CN1
Potency (TD50_Mouse_Note: TD50 is harmonic mean of more than one positive test, harmonic mean of TD50 includes a value for the upper 99% confidenc, TargetSites_Mouse_Female: lung): 0.00875 mmol/kg/day

C[As](=O)(O)O
outcome: inactive; no positive results

O=C1C2CC=CCC2C(=O)N1SC(Cl)(Cl)C(Cl)Cl (stereo unspecified)
Potency (TD50_Mouse_Note: TD50 is harmonic mean of more than one positive test, greater than ten-fold variation among TD50 values for positive res, TargetSites_Mouse_Female: hematopoietic system, liver, small intestine, stomach, vascular system): 0.51 mmol/kg/day
